{"sequences": {"note": "By UniProt entry, the sequences of proteins in these tests, tags left out. Where a name states a change or a piece, a line headed by the entry shows the natural chain unless it says otherwise. Residues count along the entry.", "UniProt P52333, 822-1111 limits assumed": "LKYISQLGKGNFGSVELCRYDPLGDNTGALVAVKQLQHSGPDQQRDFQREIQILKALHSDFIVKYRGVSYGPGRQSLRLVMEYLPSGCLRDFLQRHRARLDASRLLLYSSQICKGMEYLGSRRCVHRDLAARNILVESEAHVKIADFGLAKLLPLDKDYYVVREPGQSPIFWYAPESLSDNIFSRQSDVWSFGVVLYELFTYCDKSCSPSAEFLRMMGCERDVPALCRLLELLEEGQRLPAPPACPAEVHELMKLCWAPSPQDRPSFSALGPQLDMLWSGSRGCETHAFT", "UniProt Q15303, 26-1308": "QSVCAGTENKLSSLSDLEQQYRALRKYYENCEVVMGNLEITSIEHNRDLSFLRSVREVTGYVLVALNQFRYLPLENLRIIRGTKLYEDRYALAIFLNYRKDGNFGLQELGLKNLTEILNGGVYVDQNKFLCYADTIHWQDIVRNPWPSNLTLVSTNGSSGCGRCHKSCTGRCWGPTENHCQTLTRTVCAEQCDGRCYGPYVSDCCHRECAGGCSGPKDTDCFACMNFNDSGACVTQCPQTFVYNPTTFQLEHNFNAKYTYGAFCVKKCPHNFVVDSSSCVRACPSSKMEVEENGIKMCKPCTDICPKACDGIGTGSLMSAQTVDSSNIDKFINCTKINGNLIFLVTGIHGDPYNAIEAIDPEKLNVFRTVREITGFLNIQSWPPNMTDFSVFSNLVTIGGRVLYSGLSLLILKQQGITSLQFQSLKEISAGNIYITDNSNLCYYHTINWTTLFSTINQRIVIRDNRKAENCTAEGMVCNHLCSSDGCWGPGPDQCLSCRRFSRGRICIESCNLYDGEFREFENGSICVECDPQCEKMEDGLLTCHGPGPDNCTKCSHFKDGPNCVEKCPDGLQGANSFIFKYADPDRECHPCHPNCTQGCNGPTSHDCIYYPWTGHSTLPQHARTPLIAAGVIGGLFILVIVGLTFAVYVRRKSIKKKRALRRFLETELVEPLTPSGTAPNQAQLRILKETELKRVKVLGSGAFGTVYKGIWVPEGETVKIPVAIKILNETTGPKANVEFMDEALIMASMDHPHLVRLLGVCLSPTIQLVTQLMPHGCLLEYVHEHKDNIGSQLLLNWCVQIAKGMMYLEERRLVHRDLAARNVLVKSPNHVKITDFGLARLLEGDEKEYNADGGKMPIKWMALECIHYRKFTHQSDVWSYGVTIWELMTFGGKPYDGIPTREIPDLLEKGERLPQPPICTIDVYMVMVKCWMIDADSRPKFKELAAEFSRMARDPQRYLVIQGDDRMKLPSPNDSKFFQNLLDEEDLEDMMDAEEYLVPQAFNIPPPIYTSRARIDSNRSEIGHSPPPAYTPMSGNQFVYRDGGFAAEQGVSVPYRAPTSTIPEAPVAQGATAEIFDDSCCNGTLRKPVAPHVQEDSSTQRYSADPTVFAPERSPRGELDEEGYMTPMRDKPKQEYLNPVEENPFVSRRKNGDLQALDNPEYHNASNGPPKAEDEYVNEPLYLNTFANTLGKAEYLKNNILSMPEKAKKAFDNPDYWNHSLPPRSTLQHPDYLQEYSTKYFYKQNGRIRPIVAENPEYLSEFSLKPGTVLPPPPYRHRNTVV", "UniProt P51451": "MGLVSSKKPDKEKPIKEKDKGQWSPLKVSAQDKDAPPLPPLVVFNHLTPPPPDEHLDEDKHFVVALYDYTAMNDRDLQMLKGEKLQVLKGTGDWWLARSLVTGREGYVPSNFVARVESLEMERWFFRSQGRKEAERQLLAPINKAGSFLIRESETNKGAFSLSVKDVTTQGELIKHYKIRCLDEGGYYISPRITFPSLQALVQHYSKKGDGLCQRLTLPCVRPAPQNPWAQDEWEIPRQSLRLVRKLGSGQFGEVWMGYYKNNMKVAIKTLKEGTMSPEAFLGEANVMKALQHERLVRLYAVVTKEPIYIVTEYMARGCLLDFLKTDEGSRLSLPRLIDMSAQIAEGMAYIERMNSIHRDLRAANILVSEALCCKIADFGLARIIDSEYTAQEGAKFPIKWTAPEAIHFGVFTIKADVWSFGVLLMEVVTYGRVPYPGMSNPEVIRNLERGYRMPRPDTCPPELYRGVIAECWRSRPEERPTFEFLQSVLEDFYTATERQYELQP"}, "source": "paper PMC7730235", "about": "“Discovery of a Novel Class of Covalent Dual Inhibitors Targeting the Protein Kinases BMX and BTK” (International Journal of Molecular Sciences, 2020)", "key": {"[1]": {"biological_target": "T1, kinase domain of JAK3 (Homo sapiens, UniProt P52333)", "T1 construct": "The kinase domains of JAK3 and BMX at 2 μM; made in house", "experiment": "Thermal shift (ΔTm) assay", "type": "binding", "details": "read-out: JAK3 ΔTm", "experimental": "The kinase domains of JAK3 and BMX at 2 μM were mixed with the inhibitors at 10 μM, and subsequently SyPRO orange dye (Invitrogen Carlsbad, CA, USA) was added. The thermal shift assay and data evaluation were performed as described previously using a Real-Time PCR Mx3005p machine (Stratagene, La Jolla, CA, USA)."}, "[2]": {"biological_target": "T2, HER2 (Homo sapiens, UniProt P04626)", "T2 construct": "purchased Reaction Biology Corporation", "experiment": "Radiometric kinase assay (Reaction Biology HotSpot)", "type": "biochemical", "details": "read-out: Residual Activity @ 200 nM, HER2", "experimental": "(§1) If not mentioned differently, in vitro profiling of compounds was performed at Reaction Biology Corporation using the HotSpot™ assay platform."}, "[3]": {"biological_target": "T3, HER4 (Homo sapiens, UniProt Q15303)", "T3 construct": "purchased Reaction Biology Corporation", "experiment": "Radiometric kinase assay (Reaction Biology HotSpot)", "type": "biochemical", "details": "read-out: Residual Activity @ 200 nM, HER4", "experimental": "as §1"}, "[4]": {"biological_target": "T4, BLK (Homo sapiens, UniProt P51451)", "T4 construct": "purchased Reaction Biology Corporation", "experiment": "Radiometric kinase assay (Reaction Biology HotSpot)", "type": "biochemical", "details": "read-out: Residual Activity @ 200 nM, BLK", "experimental": "as §1"}, "[5]": {"biological_target": "T5, EGFR (Homo sapiens, UniProt P00533)", "T5 construct": "purchased Reaction Biology Corporation", "experiment": "Radiometric kinase assay (Reaction Biology HotSpot)", "type": "biochemical", "details": "read-out: Residual Activity @ 200 nM, EGFR", "experimental": "as §1"}, "[6]": {"biological_target": "T6, TXK (Homo sapiens, UniProt P42681)", "T6 construct": "purchased Reaction Biology Corporation", "T6 sequence (P42681 1-527)": "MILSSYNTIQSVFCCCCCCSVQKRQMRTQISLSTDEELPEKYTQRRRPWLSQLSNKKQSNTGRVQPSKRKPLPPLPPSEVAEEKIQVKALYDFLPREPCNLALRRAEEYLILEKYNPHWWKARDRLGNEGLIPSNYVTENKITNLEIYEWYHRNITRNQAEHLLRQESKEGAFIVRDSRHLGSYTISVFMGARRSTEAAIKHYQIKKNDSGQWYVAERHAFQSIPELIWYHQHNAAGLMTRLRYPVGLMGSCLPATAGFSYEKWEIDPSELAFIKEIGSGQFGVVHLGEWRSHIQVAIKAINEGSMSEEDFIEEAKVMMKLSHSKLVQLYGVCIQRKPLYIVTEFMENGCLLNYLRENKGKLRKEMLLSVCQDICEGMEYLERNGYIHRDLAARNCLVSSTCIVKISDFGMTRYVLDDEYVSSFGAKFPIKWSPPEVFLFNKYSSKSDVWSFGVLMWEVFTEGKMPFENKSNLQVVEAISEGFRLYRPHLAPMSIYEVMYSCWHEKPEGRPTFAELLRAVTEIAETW", "experiment": "Radiometric kinase assay (Reaction Biology HotSpot)", "type": "biochemical", "details": "read-out: Residual Activity @ 200 nM, TXK", "experimental": "as §1"}, "[7]": {"biological_target": "T7, TEC (Homo sapiens, UniProt P42680)", "T7 construct": "purchased Reaction Biology Corporation", "T7 sequence (P42680 1-631)": "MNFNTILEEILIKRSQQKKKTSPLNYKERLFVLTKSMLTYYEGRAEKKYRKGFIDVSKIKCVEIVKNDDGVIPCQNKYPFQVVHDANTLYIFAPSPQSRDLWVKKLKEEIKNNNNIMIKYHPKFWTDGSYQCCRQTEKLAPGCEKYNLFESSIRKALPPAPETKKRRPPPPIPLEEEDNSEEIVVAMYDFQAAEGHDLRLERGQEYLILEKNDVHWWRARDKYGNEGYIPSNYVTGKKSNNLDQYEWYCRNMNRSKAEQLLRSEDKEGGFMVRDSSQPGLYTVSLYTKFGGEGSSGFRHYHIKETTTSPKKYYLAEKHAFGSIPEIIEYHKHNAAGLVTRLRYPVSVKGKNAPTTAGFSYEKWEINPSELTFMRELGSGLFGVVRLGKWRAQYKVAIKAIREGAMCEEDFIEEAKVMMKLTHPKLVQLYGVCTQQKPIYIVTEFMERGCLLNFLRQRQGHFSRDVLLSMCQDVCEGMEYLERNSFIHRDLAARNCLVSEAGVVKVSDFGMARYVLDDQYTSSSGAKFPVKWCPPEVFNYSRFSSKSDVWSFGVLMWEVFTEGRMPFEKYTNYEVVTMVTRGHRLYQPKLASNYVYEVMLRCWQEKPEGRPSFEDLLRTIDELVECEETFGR", "experiment": "Radiometric kinase assay (Reaction Biology HotSpot)", "type": "biochemical", "details": "read-out: Residual Activity @ 200 nM, TEC", "experimental": "as §1"}}, "data": [{"smiles": "C=CC(=O)Nc1cccc(-c2c[nH]c3ncc(NC(=O)C4CCCC4)cc23)c1", "note": "[Compound 12a, N-(3-(3-acrylamidophenyl)-1H-pyrrolo[2,3-b]pyridin-5-yl)cyclopentanecarboxamide]", "values": [{"measurement": "ΔTm at 10 µM", "setting": "[1]", "result": "13.8 ± 0.13", "unit": "°C"}, {"measurement": "remaining activity at 0.2 µM", "setting": "[2]", "result": 81.9, "unit": "%"}, {"measurement": "remaining activity at 0.2 µM", "setting": "[3]", "result": 15.9, "unit": "%"}, {"measurement": "remaining activity at 0.2 µM", "setting": "[4]", "result": 14.7, "unit": "%"}, {"measurement": "remaining activity at 0.2 µM", "setting": "[5]", "result": 51.3, "unit": "%"}, {"measurement": "remaining activity at 0.2 µM", "setting": "[6]", "result": 5.9, "unit": "%"}, {"measurement": "remaining activity at 0.2 µM", "setting": "[7]", "result": 25.4, "unit": "%"}]}]}
